# MC4R antag cAMP = human MC4R antagonism in cAMP assay; P32245; MC4R-expressing cells, MTII-stimulated cAMP, LANCE TR-FRET; inhibition, % at 6.5 µM; 0.48% of 360,000 active; AID 540295;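 active means inhibition above its plate's cutoff, the mean of tested wells on that plate plus 3 SD, cut at about 29% in these data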
#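 Assay system: U2OS-MC4R stable cell line; Also added: Melanotan II; Technique: Eu-cAMP/anti-cAMP TR-FRET, emission 671 nm; Times: 30-min compound, 1-h challenge, 1-h detection, room temperature.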
# MC4R ag barr = human MC4R agonism via beta-arrestin. P32245. U2OS MC4R beta-arrestin complementation, luminescence; percent of melanotan II response, DMSO zero. activation, % at 8.9 µM. 0.98% of 360,000 active. AID 540308;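 active means activation above a per-plate cutoff, the mean activation of sample wells on that plate plus 3 SD, cut at about 8% in these data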
# ARFGAP1 inh = inhibits rat ARF GTPase activating protein 1; Q62848; Arfgap1-stimulated ARF1 GTP hydrolysis, GDP FP detection; 0.26% of 360,000 active; inhibition, % at 16.5 µM;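 active means inhibition above a per-plate limit, mean inhibition of low control wells plus 3 SD, cut at about 25% in these data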
#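 Assay system: Rat Arfgap1 GAP domain (His6, aa 1-136), purified enzyme | Buffer or medium: HEPES 25 mM pH 7.5, NaCl 150 mM, MgCl2, DTT | Schedule: GTP hydrolysis reaction 2 h at 25 °C | Signal: FP of antibody-bound GDP Alexa 633 tracer, ex 620/em 688 nm | Measure: Percent inhibition of Arfgap1-stimulated GTP hydrolysis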
# Yeast UUG start = yeast start codon fidelity modulation; AID 602363; activity score, % at 18.7 µM; S. cerevisiae UUG-firefly luciferase reporter, luminescence/redox ratio; 0.13% of 350,000 active;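 active means replicate mean at a twofold rise or more, about +100% in these data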;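 further: firefly luciferase made from a UUG start codon reports start codon fidelity; reporter light over untreated wells divided by growth signal over untreated wells; some hits fall short of that in this replicate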
# NRP1-CendR mod = alters CendR peptide binding to human NRP-1; O14786; FAM-RPARPAR peptide binding to NRP-1, fluorescence polarization; inhibition, % at 25 µM; 0.85% of 360,000 active; AID 602438;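 active means inhibition or corrected inhibition above about 18%, plus a signal ratio from 0.5 to 1.5, limit read from the data, passing the limit was not always enough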
# ASAP1 GAP inh = inhibitors of human ASAP1 ArfGAP activity; Q9ULH1; ASAP1-stimulated ARF1 GTP hydrolysis, GDP FP detection; inhibition, % at 16.5 µM; 0.19% of 360,000 active; AID 624377; in the data active means inhibition above about 25%
# MC4R barr conf = human MC4R beta-arrestin agonism confirmation; activation, % at 8.9 µM; U2OS MC4R beta-arrestin recruitment, luminescence; scaled DMSO 0%, Melanotan II 100%; shares compounds with MC4R ag barr; AID 602192; 31% of 2,400 active;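 active means mean activation across replicates above the hit cutoff set in the earlier primary screen, cut at about 8% in these data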
# MOR-DOR barr ag = OPRM1-OPRD1 heterodimer agonism counter-screen; activation, % at 9.2 µM; 5.8% of 2,400 active; U2OS PathHunter beta-arrestin, beta-gal luminescence; percent of deltorphin B response, DMSO zero; shares compounds with MC4R ag barr; AID 602194;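 active means mean activation across replicates exceeds the hit threshold derived in the earlier primary screen, cut at about 18% in these data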
# Numbers stand for hits; i = inactive; nt = not tested or not shown. Compounds with a hit are over-represented: about 2.3% of the library has one in this group of screens.
SMILES,MC4R antag cAMP,MC4R ag barr,ARFGAP1 inh,Yeast UUG start,NRP1-CendR mod,ASAP1 GAP inh,MC4R barr conf,MOR-DOR barr ag
C[C@@H]1CN([C@H](C)CO)C(=O)c2cccc(NC(=O)C3CC3)c2O[C@H]1CN(C)C(=O)Nc1ccc2c(c1)OCO2,nt,nt,nt,i,nt,nt,nt,nt
N=c1oc2ccc(Br)cc2cc1C(=O)NCc1ccc(F)cc1,i,i,i,i,i,i,nt,nt
CCN(CC)c1ccc2cc(C(=O)NCc3ccc(F)cc3)c(=N)oc2c1,i,13,i,i,i,i,i,i
COc1cc(NC(=O)c2ccc(-c3ccc(F)c(F)c3)c3ccoc23)cc(OC)c1OC,i,14,i,i,i,i,i,i
COc1cc(NC(=O)c2ccc(-c3cn[nH]c3)c3ccoc23)cc(OC)c1OC,i,i,i,i,i,i,nt,nt
O=C(N[C@H]1CC[C@@H](CCNS(=O)(=O)c2ccc(F)cc2)O[C@H]1CO)c1cccc(F)c1,nt,nt,nt,i,nt,nt,nt,nt
CCCCN(C)C(=O)c1ccc(Nc2nc(C(N)Cc3ccc(C(F)(F)F)cc3)cs2)nc1 (stereo unspecified),i,30,i,i,i,i,23,35
NC(COCc1ccccc1)c1csc(Nc2ccc(C(F)(F)F)cn2)n1 (stereo unspecified),i,i,i,i,i,i,nt,nt
NC(CCc1ccccc1)c1csc(Nc2ccc(C(F)(F)F)cn2)n1 (stereo unspecified),i,17,i,i,i,i,i,i
CC(C)CC(N)c1csc(Nc2ccc(C(F)(F)F)cn2)n1 (stereo unspecified),i,10,i,i,i,i,26,i
Cc1ccc(C(C)C)c(OCCNCCc2ccccc2)c1,i,9.9,i,i,i,i,i,i
Cc1ccc(C(C)C)c(OCCCNCc2cccnc2)c1,i,i,i,nt,i,i,nt,nt
Oc1ccccc1/C=N/NC(=S)NC1CC2CCC1C2 (stereo unspecified),i,12,i,i,i,i,i,i
CCc1ccc(NC(=O)C(=O)NCCOc2ccccc2Cl)cc1,i,21,i,i,i,i,i,i
Cc1ccc(NC(=O)C(=O)NCCOc2ccccc2Cl)cc1,i,12,i,i,i,i,9.8,i
CCCC(=O)Nc1ccc2c(c1)OC[C@H](C)N(CCC(F)(F)F)C[C@H](C)[C@H](OC)CN(C)C2=O,nt,nt,nt,i,nt,nt,nt,nt
CCOC(=O)c1sc(NC(=O)c2cccc(S(=O)(=O)N3CCN(C)CC3)c2)cc1C,i,i,i,i,i,i,nt,nt
CCOC(=O)c1sc(NC(=O)c2cccc(S(=O)(=O)N(CC)CC)c2)cc1C,i,12,i,i,i,i,i,i
COC(=O)c1c(NC(=O)c2ccco2)sc(C)c1C,i,i,i,i,i,i,nt,nt
Cc1c(Cc2ccccc2)sc(NC(=O)c2ccco2)c1C(N)=O,i,9.7,i,i,i,i,i,i
Cc1ccc(OCC(=O)Nc2sc3c(c2C#N)CCC3)cc1,i,11,i,i,i,i,i,i
Cc1ccc(OCC(=O)Nc2sc3c(c2C#N)CCC3)cc1C,i,14,i,i,i,i,i,i
CCOc1ccc(CNC(=O)CCc2cn(Cc3ccccc3)c3ccccc23)cc1,i,13,i,i,i,i,10,i
Cc1ccc(C(=O)Nc2c(C)cc(-c3ccc(Cl)cc3)oc2=O)cc1,i,19,i,i,i,i,i,i
Cc1ccc(C(=O)N/C(=C\c2ccc(-c3ccc(Br)cc3)o2)C(=O)NCCCN(C)C)cc1,i,11,i,nt,i,i,9.1,i
Cc1ccc(C(=O)N/C(=C\c2ccc(-c3cccc([N+](=O)[O-])c3)o2)C(=O)NCCCN(C)C)cc1,i,i,i,i,i,i,nt,nt

# Screening data deposited in PubChem BioAssay by several laboratories.
